## AlphaSeq binding of Ab-14 heavy chain variants to a spike HR2 peptide

Target: peptide PDVDLGDISGINAS, taken from heptad repeat 2 (HR2) of SARS-CoV-2 spike.

Parent scFv Ab-14: VH joined to VL by three GGGGS repeats. Changes lie in the heavy chain CDRs alone.
VH: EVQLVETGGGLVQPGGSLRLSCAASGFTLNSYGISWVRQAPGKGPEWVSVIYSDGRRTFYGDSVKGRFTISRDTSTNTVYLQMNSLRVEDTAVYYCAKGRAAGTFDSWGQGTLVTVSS
VL: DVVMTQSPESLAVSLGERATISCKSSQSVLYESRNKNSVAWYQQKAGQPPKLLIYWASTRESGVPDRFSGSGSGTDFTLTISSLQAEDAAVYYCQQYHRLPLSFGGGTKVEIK

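The parent was found by panning a naive human phage display library on the peptide. Variants in AAYL49 differ from the parent at up to three CDR positions; double and triple changes were sampled at random. The scFvs were displayed on barcoded MATa yeast, the peptide on MATalpha yeast. After mating in shaken culture at 30 °C for 16 h, diploids were selected and their barcode pairs sequenced. A regression on co-assayed BCL2-family reference pairs converts the normalised counts of each replicate to an apparent Kd. Mating was done three times.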

Each variant is given by its three heavy chain CDRs, as the data file delimits them; those of the parent are GFTLNSYGIS, VIYSDGRRTFYGDSVK, GRAAGTFDS.
The read-out is the apparent dissociation constant on a log10 scale (nM): the lower, the stronger.
Averages over replicates are reported, and they cover detected replicates only.
A pair that was not seen in that replicate is written "n.d."; this usually means weak binding, but a binder can also be missed.
Nonspecific signal, from three strains lacking the peptide, appeared in 15% of pairings of library AAYL49, centred on 4.06 (5% of these signals below 2.83); values are not corrected for it. Also given: how often the same scFv was detected with the empty control strains, with their mean in brackets.
Parent in this assay: reference entry 0.65, copy in this library 4.11 (one replicate of three).

CDR-H1	CDR-H2	CDR-H3	log10 Kd (nM) by replicate	mean log10 Kd (nM)	control signals
AFTLNSYGIS	VIYSDGRRTFCGGSVK	GRAAGTFDS	n.d. 4.77 4.33	4.55	5/9 (4.37)
GFTLNSYGHS	VIYSDGRRTCYGDSVK	IRAAGTFDS	n.d. n.d. 3.73	3.73	1/9 (3.69)
GFTLNSYGIS	VIYSDGRRTFYGDSVK	FRATGTWDS	n.d. n.d. n.d.	n.d.	1/9 (3.08)
GFTLNSYGIS	VIYSLGRPTFYGQSVK	GRAAGTFDS	n.d. n.d. 3.85	3.85	2/9 (2.92)
GFTLNHYGIS	VIYSDGPRTFYGDSVK	GRHAGTFDS	n.d. n.d. n.d.	n.d.	0/9
GFTLNSYGIS	VIYMDGRRYFYGDSVK	GRAAGTFRS	n.d. n.d. n.d.	n.d.	0/9
AFTLNSYGIS	VIYSDGRRTFYGDSVK	GRGAGTFDS	4.16 3.08 4.34	3.86	3/9 (3.95)
GFTPNSYGIS	VIYSDGRRTPYGDSVK	GQAAGTFDS	n.d. n.d. n.d.	n.d.	0/9
GNNLNSYGIS	VIYSDGRRTFYGDSVV	GRAAGTFDS	4.46 n.d. n.d.	4.46	1/9 (3.76)
GFTLNEYGIS	VIYSQGRRTFYGDSVK	GIAAGTFDS	n.d. n.d. 5.33	5.33	1/9 (3.19)
GFTVNSYGIS	VIYSDGRRTFYGDSVK	GRRAGTFDI	3.55 3.91 4.27	3.91	2/9 (3.83)
GFTLNSYGIS	VIYSEGRRTFYSDSVK	GRAAGTTDS	n.d. n.d. n.d.	n.d.	0/9
GFTLNSYGIS	VIYCDGRRTFYNDSVK	GRAAQTFDS	5.35 4.48 n.d.	4.92	3/9 (3.49)
GFTLNSYGIF	VIYSDGRRTFYGDSVK	GEAAGPFDS	n.d. n.d. n.d.	n.d.	0/9
GCTPNSYGIS	VIYSDGRRTFYGQSVK	GRAAGTFDS	n.d. n.d. n.d.	n.d.	1/9 (4.01)
GFTLNSYGIS	VIYSDGYRTGYGDSVK	GRFAGTFDS	1.38 1.45 1.68	1.50	4/9 (3.64)
GFTLNSYGIS	VIDSDGRRTGYGSSVK	GRAAGTFDS	4.38 4.98 5.63	5.00	1/9 (5.01)
GSTLNSYGIS	VIYSDGRLTFYGDSVL	GRAAGTFDS	n.d. 3.95 n.d.	3.95	0/9
GFTLNLYGIS	VIYSDGRRTWHGDSVK	GRAAGTFDS	n.d. n.d. n.d.	n.d.	0/9
GFTLNSAGIS	VIYSDGRRTFYGDSVK	GRRAGTHDS	n.d. n.d. n.d.	n.d.	1/9 (3.27)
GNTLNSYGIS	VAISDGRRTFYGDSVK	GRAAGTFDS	n.d. n.d. n.d.	n.d.	0/9
GFTLNSYGIS	VICSDSRRTFYGDSVK	GRASGTFDS	5.46 n.d. n.d.	5.46	2/9 (3.38)
GFLLNSYGIS	VIYSDGRRCFYGDSVK	GRAAGTFDS	1.56 1.74 1.48	1.59	3/9 (4.05)
GATLNSYGIS	MIYSDGFRTFYGDSVK	GRAAGTFDS	n.d. 3.16 n.d.	3.16	0/9
GFTLNSYGIS	VMYSDGRRSFYGDSVK	GRAAMTFDS	n.d. n.d. n.d.	n.d.	0/9
GFTLNSYGIS	VIYSDGRETFYGDSVK	GWAAGKFDS	n.d. n.d. n.d.	n.d.	1/9 (4.17)
GFTLNSYGIS	QIYSDGRRTFYGQSVK	YRAAGTFDS	n.d. n.d. 2.27	2.27	2/9 (3.84)
GFTLNSYGIS	VIYSDGRRTFFGDSVK	GRKAGPFDS	3.84 n.d. n.d.	3.84	0/9
GFTLVSYGIT	VIYSDGRRTFMGDSVK	GRAAGTFDS	n.d. n.d. n.d.	n.d.	0/9
GFTLNSYGHS	VIYSDGRETFYGDMVK	GRAAGTFDS	5.15 3.28 n.d.	4.21	0/9
GFTLNSYGIS	VIYTDGRRTFYGDRVC	GRAAGTFDS	n.d. n.d. n.d.	n.d.	0/9
GFTLNSYMIS	VIYSDGRRTFYGDSGK	GRAAGTFDS	n.d. n.d. n.d.	n.d.	0/9
GFTLNNYPIS	VIYSDGRRTFYGYSVK	GRAAGTFDS	n.d. n.d. n.d.	n.d.	0/9
GFTSNYYGIS	VIYSDGRRTCYGDSVK	GRAAGTFDS	4.67 n.d. n.d.	4.67	3/9 (4.06)
GFTLNSYGIS	VIHSDGRRWFEGDSVK	GRAAGTFDS	n.d. n.d. 4.34	4.34	4/9 (4.20)
GFTLNSYGYS	VIYSDGRRTFYGDTVK	TRAAGTFDS	n.d. n.d. n.d.	n.d.	0/9
GFTLNSYIES	VIYSDGRRTFYGDSVK	NRAAGTFDS	n.d. n.d. n.d.	n.d.	1/9 (2.09)
GFTLNSYGIS	VQYSDGRRTFYEDSVK	RRAAGTFDS	n.d. 4.96 n.d.	4.96	2/9 (3.81)
GFTLNSYGIS	VIYSDGIRTFYGDSVK	GRAAGTFDQ	0.37 0.62 0.03	0.34	0/9
GFTLNSYGIS	VIYSDKRRQFYGDSVK	GRAKGTFDS	n.d. n.d. n.d.	n.d.	4/9 (4.59)
GFTLNSYGIS	VIYSDGRRTFYNDSVK	GRAIGTVDS	4.71 3.62 4.67	4.34	5/9 (4.26)
GKTLNSYHIS	VIYSDGRRTFYGDSVK	GRAAWTFDS	1.65 1.63 1.67	1.65	0/9
AFTLNSYGIS	VIYSDGRRTFYGDSVK	HRAAGAFDS	2.45 n.d. n.d.	2.45	1/9 (4.39)
GFTCNEYGIS	VIYSDGRRTFYGDSVK	GRAQGTFDS	n.d. n.d. n.d.	n.d.	0/9
GFTLNSYGIS	VIYSDGRRTFYGDSVK	GSAAGYFDS	n.d. n.d. n.d.	n.d.	1/9 (2.47)

The measurements come from Engelhart et al. 2022 (doi:10.1038/s41597-022-01779-4) through the FLAb antibody collection.